Literature values as cited in patent publication US20080090885A1, “Preparation of losartan 5-carboxylic acid and use thereof” (priority 2006, published 2008).

Target: AT1 receptor (Homo sapiens, UniProt P30556)
Conditions: AT1 receptor antagonist; times more potent than losartan

potency relative to losartan: 10-40 times
Structure (SMILES): CCCCc1nc(Cl)c(C(=O)O)n1Cc1ccc(-c2ccccc2-c2nn[nH]n2)cc1 [EXP-3174, losartan 5-carboxylic acid]
